Values of other authors as cited in patent US20180177777A1, “FORMULATIONS FOR MITIGATING OPIOID OVERDOSE AND METHODS OF MAKING AND USING THE SAME” (priority 2016, published 2018).

Conditions: intranasal naloxone

Question: With `C=CCN1CC[C@]23c4c5ccc(O)c4O[C@H]2C(=O)CC[C@@]3(O)[C@H]1C5` [naloxone] as the compound, how does the “half-life (t1/2)” value read?
Answer: Its value is 2.08 h.
